Measurements reported in PMC10386414 (Molecules, 2023).
Values joined by “and” are separate entries in the source; they are usually repeats but may differ in a detail not shown here. Equal values may be shown once.

Amino acid sequences for entries named in this document (tags omitted).
UniProt P35372, whole entry, looked up: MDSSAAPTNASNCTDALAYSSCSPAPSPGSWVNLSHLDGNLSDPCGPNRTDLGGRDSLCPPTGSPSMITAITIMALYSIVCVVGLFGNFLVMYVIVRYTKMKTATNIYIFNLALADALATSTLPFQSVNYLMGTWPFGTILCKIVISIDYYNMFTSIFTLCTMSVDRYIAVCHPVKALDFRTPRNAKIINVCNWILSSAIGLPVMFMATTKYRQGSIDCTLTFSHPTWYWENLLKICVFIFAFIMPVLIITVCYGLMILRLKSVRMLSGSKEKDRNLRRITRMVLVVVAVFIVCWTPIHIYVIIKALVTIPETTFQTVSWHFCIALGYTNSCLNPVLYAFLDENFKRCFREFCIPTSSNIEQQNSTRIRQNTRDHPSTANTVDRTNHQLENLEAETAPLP

Biological target: human μ-opioid receptor (OPRM1) (Homo sapiens, UniProt P35372)
Assay: Inhibition of forskolin-induced cAMP accumulation assay, MOR antagonist mode (versus EC90 of fentanyl)
Conditions: for MOR Antagonist %Imax ± SEM: versus EC90 of fentanyl, Imax normalized to naltrexone

## CC[C@H]1[C@@H]2CCC[C@@]1(c1cccc(O)c1)CCN2CCc1ccccc1 [compound 15, 3-((1S,5R,9R)-9-Ethyl-2-phenethyl-2-azabicyclo[3.3.1]nonan-5-yl)phenol]
  IC50: 3.3 nM
  MOR Antagonist %Imax ± SEM: 69 ± 7%

## CCC[C@H]1[C@@H]2CCC[C@@]1(c1cccc(O)c1)CCN2CCc1ccccc1 [compound 16]
  IC50: 11 nM
  MOR Antagonist %Imax ± SEM: 48 ± 1%

## CCCC[C@H]1[C@@H]2CCC[C@@]1(c1cccc(O)c1)CCN2CCc1ccccc1 [compound 17, 3-((1S,5R,9R)-9-Butyl-2-phenethyl-2-azabicyclo[3.3.1]nonan-5-yl)phenol]
  IC50: 3.8 nM
  MOR Antagonist %Imax ± SEM: 80 ± 6%

## CCC[C@@H]1[C@@H]2CCC[C@@]1(c1cccc(O)c1)CCN2CCc1ccccc1 [compound 19, 3-((1S,5R,9S)-2-Phenethyl-9-propyl-2-azabicyclo[3.3.1]nonan-5-yl)phenol]
  IC50: 415 nM
  MOR Antagonist %Imax ± SEM: 101 ± 9%

## CCCC[C@@H]1[C@@H]2CCC[C@@]1(c1cccc(O)c1)CCN2CCc1ccccc1 [compound 20, 3-((1S,5R,9S)-9-Butyl-2-phenethyl-2-azabicyclo[3.3.1]nonan-5-yl)phenol]
  IC50: 1370 nM
  MOR Antagonist %Imax ± SEM: 59 ± 4%

## CC[C@@H]1[C@H]2CCC[C@]1(c1cccc(O)c1)CCN2CCc1ccccc1 [compound 38, 3-((1R,5S,9S)-9-Ethyl-2-phenethyl-2-azabicyclo[3.3.1]nonan-5-yl)phenol]
  IC50: 35 nM
  MOR Antagonist %Imax ± SEM: 92 ± 7%

## CCC[C@@H]1[C@H]2CCC[C@]1(c1cccc(O)c1)CCN2CCc1ccccc1 [compound 39, 3-((1R,5S,9S)-2-Phenethyl-9-propyl-2-azabicyclo[3.3.1]nonan-5-yl)phenol]
  IC50: 140 nM
  MOR Antagonist %Imax ± SEM: 123 ± 12%

## CCCC[C@@H]1[C@H]2CCC[C@]1(c1cccc(O)c1)CCN2CCc1ccccc1 [compound 40, 3-((1R,5S,9S)-9-Butyl-2-phenethyl-2-azabicyclo[3.3.1]nonan-5-yl)phenol]
  IC50: 2090 nM
  MOR Antagonist %Imax ± SEM: 101 ± 7%

## C[C@H]1[C@@H]2CCC[C@@]1(c1cccc(O)c1)CCN2CCc1ccccc1 [compound 48, 3-((1S,5R,9R)-9-Methyl-2-phenethyl-2-azabicyclo[3.3.1]nonan-5-yl)phenol]
cAMP assay
  MOR antagonist activity compared with naltrexone (in words): more potent, selective, and with higher antagonist efficacy than naltrexone
  MOR Antagonist %Imax ± SEM: 153% and 153 ± 12%

## C[C@@H]1[C@H]2CCC[C@]1(c1cccc(O)c1)CCN2CCc1ccccc1 [compound 56, 3-((1R,5S,9S)-9-Methyl-2-phenethyl-2-azabicyclo[3.3.1]nonan-5-yl)phenol]
  MOR Antagonist %Imax ± SEM: 93 ± 7%
